Laboratory results as given in patent EP4847521A1, “PEPTIDE-BASED PROBES FOR DIAGNOSIS OF DISEASE AND USES THEREOF” (dated 2026).

Sequences of proteins named here, by UniProt entry; tags and fusion partners are left off.
UniProt Q9HCE7, whole entry: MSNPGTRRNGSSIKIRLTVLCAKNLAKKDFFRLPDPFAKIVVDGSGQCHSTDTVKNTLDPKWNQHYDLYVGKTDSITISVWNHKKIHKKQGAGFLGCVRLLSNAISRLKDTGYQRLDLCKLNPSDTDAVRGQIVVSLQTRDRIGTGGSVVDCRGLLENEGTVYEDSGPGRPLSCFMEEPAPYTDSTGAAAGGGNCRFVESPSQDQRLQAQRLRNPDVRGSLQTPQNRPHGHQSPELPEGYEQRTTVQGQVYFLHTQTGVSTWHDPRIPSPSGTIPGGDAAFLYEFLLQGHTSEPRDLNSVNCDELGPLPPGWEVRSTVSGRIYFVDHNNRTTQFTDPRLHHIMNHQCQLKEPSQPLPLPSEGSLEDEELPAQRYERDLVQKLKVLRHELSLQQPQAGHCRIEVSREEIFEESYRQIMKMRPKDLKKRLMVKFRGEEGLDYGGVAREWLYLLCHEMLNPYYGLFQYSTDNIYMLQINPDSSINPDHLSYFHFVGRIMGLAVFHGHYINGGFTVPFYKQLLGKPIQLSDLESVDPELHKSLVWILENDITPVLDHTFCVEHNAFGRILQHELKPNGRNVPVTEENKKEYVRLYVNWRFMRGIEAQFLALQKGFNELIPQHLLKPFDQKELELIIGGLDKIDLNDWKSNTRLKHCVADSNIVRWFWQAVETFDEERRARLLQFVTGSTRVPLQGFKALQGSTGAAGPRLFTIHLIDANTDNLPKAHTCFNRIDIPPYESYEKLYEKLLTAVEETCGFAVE

Key:
[1] = system: mouse fibroblasts (NIH3T3); assay: FRET fluorescence recovery analysis in Smurf-1-negative cells; settings: negative for Smurf-1 expression, FITC/BHQ-1 quenched peptides
Excerpt: (§1) In order to investigate the binding interaction between the bioactive peptide (SBP) sequence and Smurf-1 by a quenching strategy referred to as fluorescence resonance energy transfer (FRET), the fusion peptide was further modified with an activatable fluorescent dye. BHQ-1 can quench fluorescence of fluorescein isothiocyanate (FITC) with high efficiency. […] This is likely the result of a structural change in the peptide caused by relatively large Smurf-1. In order to examine the following results in vitro, FRET analysis was performed on human osteosarcoma (HOS) cells, which are positive for Smurf-1 expression, and mouse fibroblasts (NIH3T3), which are negative for Smurf-1 expression (FIG. 3).

[2] = system: human osteosarcoma (HOS) cells; assay: FRET fluorescence recovery analysis in Smurf-1-positive cells; settings: positive for Smurf-1 expression, FITC/BHQ-1 quenched peptides
Excerpt: as §1

[3] = molecular target: human-derived Smurf1 protein (Homo sapiens, UniProt Q9HCE7); assay: Surface plasmon resonance (BIACORE T100) binding and kinetic analysis of peptides on immobilized Smurf1
Protocol: Data are presented as mean ± standard error of the mean (*p < 0.05, ***p < 0.01).
In order to chemically confirm the binding affinity between the fusion peptide synthesized by the method of Example 1, and Smurf1, human-derived Smurf1 protein acting as a ligand in this experiment was purchased from OriGene Technologies (Rockville, MD, USA). 100 mg/mL of the protein was immobilized on a gold-coated surface of a CM5 chip (Cytiva, Sweden), in which amino groups were bound to the surface, using an EDC/NHS kit (BIACORE AB, Sweden) (the above experimental method may alternatively use "Immobilization" embedded in BIACORE T100 (BIACORE AB, Sweden) software used by the present inventors). At this time, in order to find an appropriate pH condition under which the protein can bind to amino groups of the CM5 chip, a method referred to as "pH scouting" was performed to determine a pH condition. For the "pH scouting" experimental method, the method embedded in BIACORE T100 (BIACORE AB, Sweden) software used by the present inventors may alternatively be used. After immobilizing the ligand under the pH condition determined by this method, analytes (the fusion peptide synthesized in Example 1, the cell-penetrating peptide of Comparative Example 1 used as a negative control, and the inflammatory marker-binding sequence of Comparative Example 2 used as a positive control) were each flowed over the CM5 chip at 10 mM, and binding affinity was measured (the above experimental method may alternatively use "binding analysis" embedded in BIACORE T100 (BIACORE AB, Sweden) software used by the present inventors).

apparent association constants (KA) ([3]; SPR): 412900 M⁻¹ | apparent dissociation constants (KD = 1/KA) ([3]; SPR): 2422 nM | Ka (1/MS) ([3]; SPR association rate, Table 1): 2447 1/MS | Kd ([3]; SPR dissociation rate, Table 1): 0.005927 s⁻¹ | binding affinity to Smurf1 ([3]; SPR response, analytes each flowed over the CM5 chip at 10 mM): 100 RU | KA ([3]; SPR, Table 1): 412900 M⁻¹ | Rmax (RU) ([3]; SPR, Table 1): 22.4 RU
Sequence: SSRKKNPNCRRH
fluorescence signal [1]: recovery of a fluorescence signal was not observed | fluorescence signal [2]: recovery of a fluorescence signal was not observed
